Reference: ChEMBL document CHEMBL4680369, “Synthesis of HDAC Inhibitor Libraries via Microscale Workflow” (ACS Med Chem Lett, 2021)

Sequences of proteins named here, by UniProt entry; tags and fusion partners are left off. A change or cut given only in a name is not applied to a line headed by its entry.
UniProt O15379: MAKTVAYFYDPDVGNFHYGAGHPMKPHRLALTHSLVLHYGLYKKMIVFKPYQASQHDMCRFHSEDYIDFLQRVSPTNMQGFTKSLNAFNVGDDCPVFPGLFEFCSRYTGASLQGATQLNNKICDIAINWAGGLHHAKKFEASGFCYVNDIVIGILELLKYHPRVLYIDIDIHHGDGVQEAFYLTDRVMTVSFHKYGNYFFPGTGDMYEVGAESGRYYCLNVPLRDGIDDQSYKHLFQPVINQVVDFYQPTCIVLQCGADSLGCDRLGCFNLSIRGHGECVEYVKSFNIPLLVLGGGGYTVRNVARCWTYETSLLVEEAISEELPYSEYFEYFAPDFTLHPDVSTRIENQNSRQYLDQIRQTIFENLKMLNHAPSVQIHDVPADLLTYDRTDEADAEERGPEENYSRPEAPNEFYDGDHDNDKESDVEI
UniProt Q13547, whole entry: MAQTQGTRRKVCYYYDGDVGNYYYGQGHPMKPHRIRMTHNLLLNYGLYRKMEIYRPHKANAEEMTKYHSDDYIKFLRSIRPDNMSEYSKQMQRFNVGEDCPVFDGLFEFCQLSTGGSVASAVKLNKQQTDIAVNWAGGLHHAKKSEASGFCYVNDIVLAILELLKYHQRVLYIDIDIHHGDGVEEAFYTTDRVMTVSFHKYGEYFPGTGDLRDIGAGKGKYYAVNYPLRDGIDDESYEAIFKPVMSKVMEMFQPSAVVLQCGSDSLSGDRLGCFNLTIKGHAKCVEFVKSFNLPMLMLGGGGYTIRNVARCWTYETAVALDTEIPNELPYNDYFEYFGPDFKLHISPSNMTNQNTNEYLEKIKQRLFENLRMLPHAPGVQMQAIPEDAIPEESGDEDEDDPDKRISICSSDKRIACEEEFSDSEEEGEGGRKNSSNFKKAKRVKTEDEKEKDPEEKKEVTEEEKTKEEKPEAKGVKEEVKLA

Key:
[1] = target: T1, Histone deacetylase 3 (Homo sapiens, UniProt O15379); assay: Inhibition of HDAC3 (unknown origin) using compound purified by traditional preparative HPLC work-flow
[2] = target: Histone deacetylase 1 (Homo sapiens, UniProt Q13547); assay: Inhibition of HDAC1 (unknown origin) using compound purified by traditional preparative HPLC work-flow
[3] = target: T1, Histone deacetylase 3

Row | SMILES | IC50 [1] | IC50 [2] | IC50 [3]
1 | CCC(=O)CCCCC[C@H](NC(=O)[C@H]1CC12CCN(CC)CC2)c1ncc(-c2cc(C(=O)OC)c(F)cc2OC)[nH]1 | – | – | 20 nM
2 | CCC(=O)CCCCC[C@H](NC(=O)[C@H]1CC12CCN(CC)CC2)c1ncc(-c2cc([N+](=O)[O-])ccc2OC)[nH]1 | – | – | 2.9 nM
3 | CCC(=O)CCCCC[C@H](NC(=O)[C@H]1CC12CCN(CC)CC2)c1ncc(-c2c(F)cc(C(=O)Nc3cc(C(F)(F)F)ccn3)cc2OC)[nH]1 | – | – | 16 nM
4 | CCC(=O)CCCCC[C@H](NC(=O)[C@H]1CC12CCN(CC)CC2)c1ncc(-c2cc(C#N)ccc2OC)[nH]1 | – | – | 2.3 nM
5 | CCC(=O)CCCCC[C@H](NC(=O)[C@H]1CC12CCN(CC)CC2)c1ncc(-c2c(OC)ccc(F)c2F)[nH]1 | – | – | 289 nM
6 | CCC(=O)CCCCC[C@H](NC(=O)[C@H]1CC12CCN(CC)CC2)c1ncc(-c2cc(C(C)C)c(F)cc2OC)[nH]1 | – | – | 14 nM
7 | CCC(=O)CCCCC[C@H](NC(=O)[C@H]1CC12CCN(CC)CC2)c1ncc(-c2ccc(C(=O)Nc3cc(C(F)(F)F)ccn3)cc2OC)[nH]1 | – | – | 25 nM
8 | CCC(=O)CCCCC[C@H](NC(=O)[C@H]1CC12CCN(CC)CC2)c1ncc(C2=CCC(C)N=C2OC)[nH]1 (stereo not given in full) | – | – | < 0.2 nM
9 | CCC(=O)CCCCC[C@H](NC(=O)[C@H]1CC12CCN(CC)CC2)c1ncc(-c2cccc(C(F)(F)F)c2OC)[nH]1 | – | – | 6.7 nM
10 | CCC(=O)CCCCC[C@H](NC(=O)[C@H]1CC12CCN(CC)CC2)c1ncc(-c2cc(C(F)(F)F)ccc2OC)[nH]1 | – | – | 0.7 nM
11 | CCOC(=O)c1cc2cc(OC)c(-c3cnc([C@H](CCCCCC(=O)CC)NC(=O)[C@H]4CC45CCN(CC)CC5)[nH]3)cc2o1 | – | – | 0.4 nM
12 | CCOC(=O)C1CC1c1ccc(OC)c(-c2cnc([C@H](CCCCCC(=O)CC)NC(=O)[C@H]3CC34CCN(CC)CC4)[nH]2)c1 (stereo not given in full) | – | – | 0.7 nM

More lines, now with the values ahead:

Row | IC50 [1] | IC50 [2] | IC50 [3] | SMILES
13 | 0.2 nM | 0.2 nM | – | CCC(=O)CCCCC[C@H](NC(=O)[C@H]1CC12CCN(C)CC2)c1ncc(-c2ccc3[nH]c4ccccc4c3c2)[nH]1
14 | 2.1 nM | – | 1.7 nM | CCC(=O)CCCCC[C@H](NC(=O)[C@H]1CC12CCN(C)CC2)c1ncc(-c2ccc(C)nc2OC)[nH]1
15 | 3.7 nM | – | 1.4 nM | CCC(=O)CCCCC[C@H](NC(=O)[C@H]1CC12CCN(C)CC2)c1ncc(-c2ccc(-c3cccnc3)nc2)[nH]1
16 | – | – | 76 nM | CCC(=O)CCCCC[C@H](NC(=O)[C@H]1CC12CCN(C)CC2)c1ncc(-c2cnc(-n3cc(C)cn3)nc2)[nH]1
17 | 20 nM | – | 11 nM | CCC(=O)CCCCC[C@H](NC(=O)[C@H]1CC12CCN(C)CC2)c1ncc(-c2cnc3cccnc3c2)[nH]1
18 | 4.7 nM | – | 3.5 nM | CCC(=O)CCCCC[C@H](NC(=O)[C@H]1CC12CCN(C)CC2)c1ncc(-c2ccc(-n3nc(C)cc3C)cc2)[nH]1
19 | 93 nM | – | 63 nM | CCOc1ncc(-c2cnc([C@H](CCCCCC(=O)CC)NC(=O)[C@H]3CC34CCN(C)CC4)[nH]2)cn1
20 | 0.2 nM | – | – | CCC(=O)CCCCC[C@H](NC(=O)[C@H]1CC12CCN(C)CC2)c1ncc(-c2cn(C)c3ccccc23)[nH]1
21 | 19 nM | – | 11 nM | CCC(=O)CCCCC[C@H](NC(=O)[C@H]1CC12CCN(C)CC2)c1ncc(-c2ccnc(N3CCOCC3)c2F)[nH]1
22 | – | – | 0.7 nM | CCC(=O)CCCCC[C@H](NC(=O)[C@H]1CC12CCN(CC)CC2)c1ncc(-c2c(F)cccc2OC)[nH]1
23 | 55 nM | – | 33 nM | CCC(=O)CCCCC[C@H](NC(=O)[C@H]1CC12CCN(C)CC2)c1ncc(-c2ccn3ncnc3c2)[nH]1
24 | 3.4 nM | – | 4.5 nM | CCC(=O)CCCCC[C@H](NC(=O)[C@H]1CC12CCN(C)CC2)c1ncc(-c2ccc(C(=O)NC3CCOC3)cc2)[nH]1 (stereo not given in full)
25 | 257 nM | – | 187 nM | CCC(=O)CCCCC[C@H](NC(=O)[C@H]1CC12CCN(C)CC2)c1ncc(C2=CC(=O)N(C)CC2)[nH]1
